The target in the test is Chitotriosidase-1 (Homo sapiens, UniProt Q13231). Briefly: Enzyme Inhibition Assay. The note with it: pH 5.2; 37 °C. On the procedure: The IC50s of inhibitor against the human chitinase were determined using the fluorogenic substrate 4MU-NAG3. The fluorescence of the liberated 4MU was quantified using a Perkin Elmer LS2 fluorimeter (excitation 366 nm, emission 445 nm).

Chains of the proteins cited; added tags and fusions are not shown. Lines headed by an entry give the natural chain unless they say otherwise; changes in a name come on top.
UniProt Q13231: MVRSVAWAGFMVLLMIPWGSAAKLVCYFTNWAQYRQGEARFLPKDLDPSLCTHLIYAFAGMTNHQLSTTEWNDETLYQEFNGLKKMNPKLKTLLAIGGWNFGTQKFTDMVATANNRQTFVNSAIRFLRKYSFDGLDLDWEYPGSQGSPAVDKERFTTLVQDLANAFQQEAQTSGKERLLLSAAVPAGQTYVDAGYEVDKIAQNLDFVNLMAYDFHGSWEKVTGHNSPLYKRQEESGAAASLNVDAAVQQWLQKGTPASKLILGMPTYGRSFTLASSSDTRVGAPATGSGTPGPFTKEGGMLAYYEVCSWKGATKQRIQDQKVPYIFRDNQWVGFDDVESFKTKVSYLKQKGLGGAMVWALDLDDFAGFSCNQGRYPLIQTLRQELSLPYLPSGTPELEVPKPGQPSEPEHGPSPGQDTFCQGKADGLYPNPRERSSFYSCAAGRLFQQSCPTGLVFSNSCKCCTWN

Turning to `CNC(=O)NC(=N)NCCC[C@@H]1NC(=O)[C@@H](C)NC(=O)C[C@@H](C(=O)O)NC(=O)C[C@@H](C(=O)O)NC(=O)[C@H](Cc2ccccc2)N(C)C1=O` [(2R,5S,8S,11S,15S)-8-benzyl-2,7-dimethyl-5-[3-({[(methylcarbamoyl)amino]methanimidoyl}amino)propyl]-3,6,9,13,17-pentaoxo-1,4,7,10,14-pentaazacycloheptadecane-11,15-dicarboxylic acid], the IC50 – broadly, the concentration that inhibits the measured activity by half – stood at 4.5 µM.
